# Experimental data from ChEMBL document CHEMBL3217594, “Structureactivity relationships of methyl-lysine reader antagonists” (Medchemcomm, 2012).
# Molecular target: T1, Lethal(3)malignant brain tumor-like protein 3 (Homo sapiens, UniProt Q96JM7)
# T1 sequence (Q96JM7 whole entry): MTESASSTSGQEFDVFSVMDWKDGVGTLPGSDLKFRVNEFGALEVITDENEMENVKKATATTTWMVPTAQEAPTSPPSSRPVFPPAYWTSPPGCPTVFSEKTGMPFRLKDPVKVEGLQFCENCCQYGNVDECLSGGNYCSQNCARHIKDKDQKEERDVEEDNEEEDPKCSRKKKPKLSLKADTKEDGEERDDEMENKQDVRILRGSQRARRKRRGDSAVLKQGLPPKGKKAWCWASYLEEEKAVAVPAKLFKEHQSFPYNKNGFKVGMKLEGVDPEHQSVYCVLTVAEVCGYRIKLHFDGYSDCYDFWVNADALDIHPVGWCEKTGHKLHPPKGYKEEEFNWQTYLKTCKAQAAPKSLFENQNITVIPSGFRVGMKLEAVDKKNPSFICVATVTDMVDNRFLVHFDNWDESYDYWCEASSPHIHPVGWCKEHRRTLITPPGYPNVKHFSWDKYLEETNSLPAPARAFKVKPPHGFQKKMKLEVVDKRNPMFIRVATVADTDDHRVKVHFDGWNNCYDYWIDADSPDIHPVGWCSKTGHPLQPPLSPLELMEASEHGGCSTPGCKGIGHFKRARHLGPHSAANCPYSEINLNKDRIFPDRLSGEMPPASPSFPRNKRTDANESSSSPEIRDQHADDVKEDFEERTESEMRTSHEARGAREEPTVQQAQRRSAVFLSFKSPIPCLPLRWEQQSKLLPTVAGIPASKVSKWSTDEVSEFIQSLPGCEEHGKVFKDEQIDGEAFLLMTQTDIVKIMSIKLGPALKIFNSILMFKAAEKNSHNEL
# Assay: Antagonist activity at His-tagged L3MBTL3 (unknown origin) assessed as inhibition of L3MBTL3/biotinylated H4K20Me2 peptide interaction after 30 mins by AlphaScreen assay
compound,measurement,value
O=C(c1cccc(Br)c1)N1CCC(C2CCCN2)CC1 (stereo unspecified),IC50,> 30 µM
